According to patent publication US7872043B2, “Use of furan alkyls for a cellulite cosmetic treatment” (Laboratories Expanscience, priority 2004, dated 2011):
“Also recorded” adds a separate entry of the source.

Experiments:
[1] = test system: mice fattened on a high fat/high sucrose diet (HF/HS); assay: Intraperitoneal Glucose Tolerance Test (IPGTT); assay type: in vivo; details: TZD 10 mg/kg/day
[2] = test system: GSH-S-transferase (target PXR); assay: Liver mRNA expression, real-time Q-RT-PCR: GSH-S-transferase; assay type: in vivo, mice; details: TZD; AV102 (0.25%)
Experimental: In the liver, the mRNA expressions of 8 genes were determined in 5 mice of each group using real-time Q-RT-PCR analysis.

## CN(CCOc1ccc(CC2SC(=O)NC2=O)cc1)c1ccccn1 (stereo not drawn) [TZD, Rosiglitazone]
[1]; curative
  IPGTT (glucose resistance, AUC): does not act
[1]; preventive
  IPGTT (glucose resistance, AUC): no significant AUC reduction; also recorded: reduces glucose resistance
[2]
  GSH-S-transferase (target PXR) mRNA in the liver: ↑
